Experimental data published in PubChem BioAssay AID588453 (National Center for Advancing Translational Sciences (NCATS), 2011).
The list shows a part of the results, in another mix than the full data. Results filed as inconclusive are left out. Where a call stands in place of a potency, no number is given. Calls of active or inactive are those of the source. Calls follow the shape of the dose curve; as a rule, active = well fitted inhibition curve with a large enough effect; inconclusive = small, poorly fitted or top-dose-only effect; inactive = no such curve, though single readings can be large or run the other way.

Sequences of proteins named here, by UniProt entry; tags and fusion partners are left off.
UniProt O89049, whole entry, looked up: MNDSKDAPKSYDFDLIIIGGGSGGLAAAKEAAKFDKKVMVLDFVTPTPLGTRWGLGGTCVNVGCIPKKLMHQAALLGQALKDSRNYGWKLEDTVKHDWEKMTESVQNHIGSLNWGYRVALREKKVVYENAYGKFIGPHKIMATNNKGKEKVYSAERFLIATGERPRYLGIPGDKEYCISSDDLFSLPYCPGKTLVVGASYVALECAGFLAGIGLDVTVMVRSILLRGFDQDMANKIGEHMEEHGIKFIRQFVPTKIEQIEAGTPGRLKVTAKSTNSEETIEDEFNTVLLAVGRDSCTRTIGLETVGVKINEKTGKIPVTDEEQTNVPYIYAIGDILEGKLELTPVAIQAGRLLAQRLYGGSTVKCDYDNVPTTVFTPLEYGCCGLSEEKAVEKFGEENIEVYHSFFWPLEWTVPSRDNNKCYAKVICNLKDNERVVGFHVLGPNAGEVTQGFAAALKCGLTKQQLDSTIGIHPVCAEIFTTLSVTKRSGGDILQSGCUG

Biological target: Thioredoxin reductase 1, cytoplasmic (Rattus norvegicus) (UniProt O89049)
Experiment: qHTS Assay for Inhibitors of Mammalian Selenoprotein Thioredoxin Reductase 1 (TrxR1): qHTS; also: nearly all actives have a fitted effect of over 65% in size
Details: recombinant rTrxR1, NADPH fluorescence consumption, selenite substrate; series mostly up to 114 µM
Potency is read from the fitted curve at half-maximal effect.

| Structure (SMILES) | Potency | activity change, negative = inhibition |
| --- | --- | --- |
| COc1cc(I)ccc1[As](=O)(O)O | active: 44.7 µM | – |
| O=P1(N(CCCl)CCCl)OCCCN1CCCl (stereo not drawn) | – | inactive |
| O=P1(N(CCCl)CCCl)Nc2ccccc2N1 | – | inactive |
| Nc1cc(N)c2nonc2c1[N+](=O)[O-] | – | inactive |
| CC(C)CC(=O)NC(Sc1ccc(Cl)cc1)C(Cl)(Cl)Cl (stereo not drawn) | – | inactive |
| Oc1ccccc1CNc1ccccn1 | – | inactive |
| NC(=O)c1cc([N+](=O)[O-])cc([N+](=O)[O-])c1N | – | inactive |
| O=[N+]([O-])c1cc2c(cc1[N+](=O)[O-])OCO2 | – | inactive |
| Cc1ccc(N/C(=N/P(=O)(N2CCOCC2)N2CCOCC2)N2CCOCC2)cc1 | – | inactive |
| COc1ccccc1OP(=O)(Nc1ccc(C)cn1)Oc1ccccc1OC | – | inactive |
| Cc1ccc(OP(=O)(Nc2nccs2)Oc2ccc(C)cc2)cc1 | – | inactive |
| CN1CCCC(OC(=O)C(c2ccccc2)c2ccccc2)C1 (stereo not drawn) | – | inactive |
| Nc1c(O)cc([N+](=O)[O-])cc1[N+](=O)[O-] | – | inactive |
| CCN(N=Nc1nonc1N)c1nonc1N | – | inactive |
| Nc1cccc2ccc([As](=O)(O)O)cc12 | – | inactive: 12% [at 2.29 µM] |
| CC(=O)Nc1ccc([As](=O)(O)O)cc1 | – | inactive |
| O=C(O)c1ccccc1[As](=O)(O)O | active: 7.08 µM | – |
| CCCC1OP(N)(=O)OCC1CC (stereo not drawn) | – | inactive: 2.63% [at 2.29 µM] |
| O=P(Nc1nc2ccc(Cl)cc2s1)(c1ccccc1)c1ccccc1 | – | inactive |
| Cc1cc(SC(NC(=O)c2ccc(F)cc2)C(Cl)(Cl)Cl)ncn1 (stereo not drawn) | – | inactive |
| CCOP(=O)(Nc1ccccc1)OCC | – | inactive |

| Structure (SMILES) | Potency | activity change, negative = inhibition |
| --- | --- | --- |
| Cc1ccc(NP(=O)(Oc2ccccc2F)Oc2ccccc2F)nc1 | – | inactive |
| CC(C)(C)C(=O)NC(Sc1ccncn1)C(Cl)(Cl)Cl (stereo not drawn) | active: 4.47 µM | – |
| O=[N+]([O-])c1ncn(CCn2ncnc2[N+](=O)[O-])n1 | – | inactive |
| COC(=O)C1(C)COP(=O)(Nc2ccccc2)OC1 (stereo not drawn) | – | inactive: 11.7% [at 11.4 µM] |
| O=C(O)CNc1ccc([As](=O)(O)O)cc1 | – | inactive |
| Cc1cc(C=O)ccc1N(CCCl)CCCl | – | inactive |
| O=P1(N(CCCl)CCCl)OCCCS1 (stereo not drawn) | – | inactive: -1.79% [at 2.29 µM] |
| O=P(/N=c1/nc(-c2ccccc2)n(-c2ccccc2)s1)(Nc1ccccc1)Nc1ccccc1 | – | inactive |
| O=C(Nc1cc([As](=O)(O)O)ccc1O)c1ccccc1 | – | inactive |
| Nc1ccc([As](=O)(O)c2ccc(N)cc2)cc1 | – | inactive |
| CCN(/C(=N/P(=O)(N1CCOCC1)N1CCOCC1)N1CCOCC1)c1ccc(OC)cc1 | – | inactive |
| CC(C)=N/N=C(\N)N[N+](=O)[O-] | – | inactive |
| CN(C)C(=O)OCCc1n(C)cc[n+]1C | – | inactive |
| CC1CCN(C(=O)Oc2c(Cl)cc(Cl)c3cccnc23)CC1 | – | inactive |
| COc1ccc(C2=NCC(CBr)S2)cc1 (stereo not drawn) | – | inactive |
| O=[N+]([O-])c1cccc2n[nH]nc12 | – | inactive |
| CC(=O)N1C2C3N(C(C)=O)C1C1N(C(C)=O)C(C(N1C(C)=O)N3C(C)=O)N2C(C)=O | – | inactive |
| Cc1ccc(NP(=O)(Oc2ccccc2)Oc2ccccc2)nc1 | – | inactive |
| CCc1nc2c(n1)c1c(non1O)c1c2no[n+]1[O-] | active: 11.2 µM | – |
| O=[N+]([O-])c1cc([N+](=O)[O-])c(CCNc2ccccc2)c([N+](=O)[O-])c1 | – | inactive |
| COc1cccc([N+](=O)[O-])c1[N+](=O)[O-] | – | inactive |

| Structure (SMILES) | Potency | activity change, negative = inhibition |
| --- | --- | --- |
| CC(C)C(=O)NC(Sc1ccccc1)C(Cl)(Cl)Cl (stereo not drawn) | – | inactive |
| O=P(Nc1nccs1)(c1ccccc1)c1ccccc1 | – | inactive |
| c1nnnn1CCn1cnnn1 | – | inactive |
| O=[N+]([O-])c1ccc(O)c(/C=N/Nc2ccc([N+](=O)[O-])cc2[N+](=O)[O-])c1 | – | inactive |
| CC(=O)NC(SC(=S)N(C)C)C(Cl)(Cl)Cl (stereo not drawn) | active: 20 µM | – |
| O=[N+]([O-])c1ncn(CCn2cnc([N+](=O)[O-])n2)n1 | – | inactive |
| O=[As](O)(c1ccccc1)c1ccc(O)cc1 | – | inactive |
| C(Cc1nn[nH]n1)Cc1nn[nH]n1 | – | inactive |
| Nc1ccc([As](=O)(O)c2ccc([N+](=O)[O-])cc2)cc1 | – | inactive |
| O=C(OC1CN2CCC1CC2)c1cccc(Cl)c1 (stereo not drawn) | – | inactive |
| COc1ccc(N)c([N+](=O)[O-])c1[N+](=O)[O-] | – | inactive |
| O=P(Nc1ccccn1)(c1ccc(Br)cc1)c1ccc(Br)cc1 | – | inactive |
| CN(C)C1(CNC(=O)c2ccc(Cl)c(S(N)(=O)=O)c2)CCCCC1 | – | inactive |
| O=P(Nc1nc2ccccc2s1)(c1ccccc1)c1ccccc1 | – | inactive |
| C[C@H]1OP(=O)(Oc2ccccc2)[C@H](O)[C@H](O)[C@H]1N=[N+]=[N-] (stereo partly drawn) | – | inactive |
| COC(=O)c1cc2c(s1)N=C(c1ccccc1)N(C)P2(=O)N1CCOCC1 (stereo not drawn) | – | inactive |
| CC(=O)NC(SC(=S)N(CC(C)C)CC(C)C)C(Cl)(Cl)Cl (stereo not drawn) | – | inactive |
| Cc1ccc(OP(=O)(Nc2ccccn2)Oc2ccc(C)cc2)cc1 | – | inactive |
| O=C(OC1CN2CCC1CC2)c1ccccc1 (stereo not drawn) | – | inactive |
| CCC(=O)N1C2C3N(C(=O)CC)C1C1N(C(=O)CC)C(C(N1C(=O)CC)N3C(=O)CC)N2C(=O)CC | – | inactive |
| CC(NC(=O)COC(=O)C(O)(c1ccccc1)c1ccccc1)c1ccccc1 (stereo not drawn) | – | inactive |

| Structure (SMILES) | Potency | activity change, negative = inhibition |
| --- | --- | --- |
| Cc1ccccc1OP(=O)(Nc1ccccn1)Oc1ccccc1C | – | inactive |
| O=c1c2cc([N+](=O)[O-])ccc2[nH]c2c([N+](=O)[O-])cc([N+](=O)[O-])cc12 | active: 3.16 µM | – |
| CN(C)C(=O)Oc1noc2ccccc12 | – | inactive |
| CCNC(=S)/N=C(\N)N[N+](=O)[O-] | – | inactive |
| O=C(NC1CCS(=O)(=O)C1)NP(=S)(Oc1ccccc1)Oc1ccccc1 (stereo not drawn) | – | inactive |
| c1ccc(-c2nn[nH]n2)c(-c2nn[nH]n2)c1 | – | inactive |
| Cc1ccc(NP(=O)(Oc2cccc(C)c2)Oc2cccc(C)c2)nc1 | – | inactive |
| O=[N+]([O-])c1cc([N+](=O)[O-])c2nc[nH]c2c1 | – | inactive |
| O=P1(N(CCCl)CCCl)OCCC2CCCCN21 (stereo not drawn) | – | inactive: 17.2% [at 2.29 µM] |
| CC(=O)c1ccc(N2CC2c2ccncc2)cc1 (stereo not drawn) | – | inactive |
| N#C/C(=C\c1ccc(N(CCBr)CCBr)cc1)C(N)=O | – | inactive: -20.1% [at 11.4 µM] |
| COC(=O)C1(C)COP(=O)(NCc2ccccc2)OC1 (stereo not drawn) | – | inactive: 5.24% [at 11.4 µM] |
| Cc1ccccc1CN(C)C(=O)COC(=O)C(O)(c1ccccc1)c1ccccc1 | – | inactive |
| C[C@H]1OP(=O)(Oc2ccccc2)C[C@@H]2O[C@@H]21 (stereo partly drawn) | – | inactive |
| C[C@@H]1C=CCP(=O)(Oc2ccccc2)O1 (stereo partly drawn) | – | inactive |
| CC(=O)Nc1ccc([As](=O)(O)O)c(O)c1 | – | inactive |
| O=P1(Nc2nc3ccc(Cl)cc3s2)COc2ccccc2O1 (stereo not drawn) | – | inactive |
| CCOc1ccc(C2=NCC(CBr)S2)cc1 (stereo not drawn) | – | inactive |
| CCc1cc(O)c([N+](=O)[O-])c(C)c1[N+](=O)[O-] | – | inactive |
| CC(C)(C)C(=O)NC(Sc1ccccc1)C(Cl)(Cl)Cl (stereo not drawn) | – | inactive |
